The target in this experiment is Whole ZIKV virions (Paraiba_01 strain) (Zika virus (strain Paraiba_01)). The experiment can be described thus: ELISA.

B1: Human recombinant EDE1-C8 (antibody, V domains shown)
VH: EVQLVESGGGLVQPGGSLRLSCSASGFTFSTYSMHWVRQAPGKGLEYVSAITGEGDSAFYADSVKGRFTISRDNSKNTLYFEMNSLRPEDTAVYYCVGGYSNFYYYYTMDVWGQGTTVTVSS
VL: EIVLTQSPATLSLSPGERATLSCRASQSISTFLAWYQHKPGQAPRLLIYDASTRATGVPARFSGSRSGTDFTLTISTLEPEDFAVYYCQQRYNWPPYTFGQGTKVEIK
B1: the binding result was “binds”.

Source of the values: publication PMC10775418 (Cell reports, 2023).
